{"source": "PubChem BioAssay AID2052", "about": "(NMMLSC, 2009)", "note": "This is a selection; strong and weak results do not stand in their true shares. Active and inactive are the calls of the source.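 How the source made its calls: active means response, share of CD8 T cells binding vesicles, and their 90th percentile fluorescence all below set limits (cut at about 80% in these data, passing the limit was not always enough); inactive means the rest, inconclusive results apart.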", "data": [{"assay": "modulators of CD8 T cell-vesicle binding, primary screen, mouse 2C CD8+ T cells, flow cytometry (AID 2052);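 further: values below 100% mean blocked vesicle binding to the CD8+ T cells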", "details": "2C CD8+ T cell-vesicle binding, at 7 µM, stronger effect = lower value", "method_in_brief": "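Read-out – percent CD8+ FL2 mean versus row control · System – murine 2C transgenic CD8+ T lymphocytes · Times – 1.5 h cell–vesicle binding at 37 °C, then 20 min icy labelling · Control set – naked vesicles low, QL9 vesicles with vehicle high · Detection – cytometric PE anti-B7-1 and Alexa647 anti-CD8 signals after 1% paraformaldehyde fixation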", "values": [{"smiles": "C[N+]1=C2C=CC=CC=C2SC12C([N+](=O)[O-])=CC([N+](=O)[O-])=C[C-]2[N+](=O)[O-]", "note": "(stereo unspecified)", "response (vesicle binding)": "active: 48.2%"}]}]}
